Test results reported in patent US9283236B2, “Aldosterone induced vascular elastin production” (HUMAN MATRIX SCIENCES, LLC, priority 2008, dated 2016).

Test system: human fetal cardiac fibroblasts
Experiment: Quantitative assay of [3H]valine-labeled insoluble elastin
Type: cell-based
Settings: aldosterone 100 nmol/L and 1 μmol/L

## C[C@]12CCC(=O)C=C1CC[C@@H]1[C@@H]2[C@@H](O)C[C@]2(C=O)[C@@H](C(=O)CO)CC[C@@H]12 [aldosterone]
  elastin production above physiological levels: led to a further increase in elastin production
